PubChem BioAssay (NCI)
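Five concentrations, 48 hours, 96-well plates. GI50 = concentration required for 50% inhibition of growth. TGI denotes the concentration required for complete inhibition of growth.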

Assays:
Test in all cases: NCI tumour cell line growth inhibition, 48 h
[1] = system: MOLT-4 leukemia
[2] = system: CAKI-1 renal
[3] = system: OVCAR-3 ovarian
[4] = system: K-562 leukemia
[5] = system: SW-620 colon
[6] = system: NCI-H226 lung
[7] = system: HCT-116 colon
[8] = system: COLO 205 colon
[9] = system: XF 498 CNS
[10] = system: MCF7 breast
[11] = system: NCI-H23 lung
[12] = system: SNB-75 CNS
[13] = system: UACC-62 melanoma
[14] = system: SNB-19 CNS
[15] = system: LOX IMVI melanoma
[16] = system: OVCAR-4 ovarian
[17] = system: UACC-257 melanoma
[18] = system: HOP-62 NSCLC
[19] = system: NCI-H322M lung
[20] = system: HOP-92 NSCLC
[21] = system: SF-295 CNS
[22] = system: SNB-78 CNS
[23] = system: SK-OV-3 ovarian
[24] = system: A498 renal
[25] = system: RPMI-8226 leukemia
[26] = system: KM12 colon
[27] = system: SF-268 CNS
[28] = system: RXF 393 renal
[29] = system: OVCAR-5 ovarian
[30] = system: HCC-2998 colon
[31] = system: NCI-H460 lung
[32] = system: NCI/ADR-RES ovarian
[33] = system: EKVX NSCLC
[34] = system: SK-MEL-5 melanoma
[35] = system: SK-MEL-2 melanoma
[36] = system: NCI-H522 lung
[37] = system: A549 NSCLC
[38] = system: KM20L2 colon
[39] = system: DMS 273 small cell lung
[40] = system: UO-31 renal
[41] = system: P388 leukemia
[42] = system: HOP-18 NSCLC
[43] = system: OVCAR-8 ovarian
[44] = system: SN12K1 renal
[45] = system: IGROV1 ovarian
[46] = system: U251 CNS
[47] = system: SK-MEL-28 melanoma
[48] = system: SF-539 CNS
[49] = system: HCT-15 colon
[50] = system: CCRF-CEM leukemia
[51] = system: MALME-3M melanoma
[52] = system: SN12C renal
[53] = system: M19-MEL melanoma
[54] = system: P388/ADR leukemia
[55] = system: DMS 114 small cell lung
[56] = system: HT29 colon

## C1C[N-]1.C1C[N-]1.[Cl][Pt+2][Cl]
[1]
  GI50: 1.79 µM
  TGI: 11 µM
[2]
  GI50: 15.1 µM
  TGI: 60 µM
[3]
  GI50: 22 µM
  TGI: 74.5 µM
[4]
  GI50: 17 µM
  TGI: 50.6 µM
[5]
  GI50: 13.5 µM
  TGI: 36.2 µM
[6]
  GI50: 19.7 µM
  TGI: 52.6 µM
[7]
  GI50: 16.1 µM
  TGI: 36.7 µM
[8]
  GI50: 15 µM
  TGI: 30.7 µM
[9]
  GI50: 14.5 µM
  TGI: 41 µM
[10]
  GI50: 15.2 µM
  TGI: > 100 µM
[11]
  GI50: 23 µM
  TGI: 62.8 µM
[12]
  GI50: 18.9 µM
  TGI: > 100 µM
[13]
  GI50: 12.7 µM
  TGI: 29.8 µM
[14]
  GI50: 12.8 µM
  TGI: 39.7 µM
[15]
  GI50: 16.2 µM
  TGI: 49.3 µM
[16]
  GI50: 24 µM
  TGI: 91 µM
[17]
  GI50: 27.7 µM
  TGI: 80.2 µM
[18]
  GI50: 32.6 µM
  TGI: > 100 µM
[19]
  GI50: 26.8 µM
  TGI: 90.3 µM
[20]
  GI50: 41.1 µM
  TGI: 86.4 µM
[21]
  GI50: 21.3 µM
  TGI: 94.9 µM
[22]
  GI50: 21.6 µM
  TGI: > 100 µM
[23]
  GI50: 17.9 µM
  TGI: 53.3 µM
[24]
  GI50: 36.2 µM
  TGI: > 100 µM
[25]
  GI50: 14 µM
  TGI: 46 µM
[26]
  GI50: 29.7 µM
  TGI: 83.5 µM
[27]
  GI50: 8.94 µM
  TGI: 43.9 µM
[28]
  GI50: 14.1 µM
  TGI: 33.6 µM
[29]
  GI50: 39.7 µM
  TGI: > 100 µM
[30]
  GI50: 35.2 µM
  TGI: 59.4 µM
[31]
  GI50: 5.04 µM
  TGI: 22.3 µM
[32]
  GI50: 21.6 µM
  TGI: 60 µM
[33]
  GI50: 13.8 µM
  TGI: 38.5 µM
[34]
  GI50: 13.4 µM
  TGI: 25 µM
[35]
  GI50: 18.5 µM
  TGI: 41.7 µM
[36]
  GI50: 6 µM
  TGI: 31.3 µM
[37]
  GI50: 25.5 µM
  TGI: > 100 µM
[38]
  GI50: 13.7 µM
  TGI: 31.8 µM
[39]
  GI50: 9.92 µM
  TGI: 41.8 µM
[40]
  GI50: 21.6 µM
  TGI: 47.9 µM
[41]
  GI50: 3.43 µM
  TGI: 13.6 µM
[42]
  GI50: 26.7 µM
  TGI: 72.8 µM
[43]
  GI50: 29.3 µM
  TGI: > 100 µM
[44]
  GI50: 17.7 µM
  TGI: 47.8 µM
[45]
  GI50: 12.8 µM
  TGI: 41 µM
[46]
  GI50: 13.5 µM
  TGI: 34.8 µM
[47]
  GI50: 16.1 µM
  TGI: 46.9 µM
[48]
  GI50: 22.4 µM
  TGI: 67.5 µM
[49]
  GI50: 14.4 µM
  TGI: 34.9 µM
[50]
  GI50: 3.66 µM
  TGI: 16.4 µM
[51]
  GI50: 18.4 µM
  TGI: 46.8 µM
[52]
  GI50: 20.2 µM
  TGI: 74.7 µM
[53]
  GI50: 14.3 µM
  TGI: 43.1 µM
[54]
  GI50: 4.79 µM
  TGI: 15.3 µM
[55]
  GI50: 0.0655 µM
  TGI: 1.02 µM
[56]
  GI50: 17.5 µM
  TGI: 45 µM
